Experimental data taken from paper PMC6443995.

Target: Alexa Fluor 488-labeled human amidated neuropeptide Y (human) (UniProt P01303)

| K M (μM) of the proteolytic cleavage of Alexa Fluor 488-labeled human amidated NPY (1–20 μM), 37 °C, 50 mM Tris/HCl pH 7.5 [μM] | Substance |
| --- | --- |
| 12.9 | pigC/huTTR, human chimeric TTR in which the C-terminal sequence of human TTR was changed to that of Sus scrofa TTR (from UniProt P02766 21-140; P50390 141-150) (enzyme) |
| 15.9 | human native transthyretin (TTR) purified from plasma (from UniProt P02766 21-147) (enzyme) |
